Values quoted from earlier work as cited in article PMC3365014, “Specific Recognition of p53 Tetramers by Peptides Derived from p53 Interacting Proteins” (PLoS ONE, 2012).

Biological target: p53 NRD
Conditions: full-length S100 proteins

B1: S100A4: S100 family protein; binding to the NRD much weaker (protein, UniProt P26447 2-101, looked up)
Protein S100-A4: ACPLEKALDVMVSTFHKYSGKEGDKFKLNKSELKELLTRELPSFLGKRTDEAAFQKLMSNLDSNRDNEVDFQEYCVFLSCIAMMCNEFFEGFPDKQPRKK
In the case of B1, the “Kd of binding to the NRD” value is listed as “much weaker”.
